Laboratory results as given in US7307083B2, “Tetrahydro-acridine and dithiolane derivatives” (priority 2005, dated 2007).

By UniProt entry, the sequences of proteins in these tests, tags left out. Residues count along the entry.
UniProt P22303, 32-614 limits assumed: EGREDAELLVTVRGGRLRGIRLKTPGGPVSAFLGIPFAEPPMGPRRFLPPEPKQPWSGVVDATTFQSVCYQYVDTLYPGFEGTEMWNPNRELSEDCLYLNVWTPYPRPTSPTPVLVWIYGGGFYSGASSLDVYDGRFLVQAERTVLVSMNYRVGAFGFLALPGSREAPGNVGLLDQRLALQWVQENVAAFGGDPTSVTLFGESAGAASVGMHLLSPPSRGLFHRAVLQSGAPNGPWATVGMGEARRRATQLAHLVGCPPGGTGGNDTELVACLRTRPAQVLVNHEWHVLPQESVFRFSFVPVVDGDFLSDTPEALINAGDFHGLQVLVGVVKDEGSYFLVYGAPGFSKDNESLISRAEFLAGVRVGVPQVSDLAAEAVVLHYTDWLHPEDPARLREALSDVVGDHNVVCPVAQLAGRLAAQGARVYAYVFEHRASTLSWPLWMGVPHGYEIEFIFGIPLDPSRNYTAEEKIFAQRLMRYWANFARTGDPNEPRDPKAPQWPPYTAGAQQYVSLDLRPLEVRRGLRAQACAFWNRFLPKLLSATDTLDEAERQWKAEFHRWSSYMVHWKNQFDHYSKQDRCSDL
UniProt P06276, 29-602 limits assumed: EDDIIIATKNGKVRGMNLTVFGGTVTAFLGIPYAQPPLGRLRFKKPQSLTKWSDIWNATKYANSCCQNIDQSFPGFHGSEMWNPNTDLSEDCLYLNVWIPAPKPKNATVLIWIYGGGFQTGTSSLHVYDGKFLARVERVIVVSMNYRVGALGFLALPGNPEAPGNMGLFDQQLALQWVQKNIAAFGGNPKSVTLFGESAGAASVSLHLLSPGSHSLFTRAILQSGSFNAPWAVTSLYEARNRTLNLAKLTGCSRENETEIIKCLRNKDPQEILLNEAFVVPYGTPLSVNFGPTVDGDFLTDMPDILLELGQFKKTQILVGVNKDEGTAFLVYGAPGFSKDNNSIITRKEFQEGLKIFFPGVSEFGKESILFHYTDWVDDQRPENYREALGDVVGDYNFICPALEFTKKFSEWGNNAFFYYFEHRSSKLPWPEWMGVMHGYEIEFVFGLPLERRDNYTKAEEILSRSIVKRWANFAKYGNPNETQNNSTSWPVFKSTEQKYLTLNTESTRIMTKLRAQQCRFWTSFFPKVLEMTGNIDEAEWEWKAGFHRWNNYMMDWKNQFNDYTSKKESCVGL

Key:
[1] = molecular target: human recombinant acetylcholinesterase (AChE or HuAChE) (Homo sapiens, UniProt P22303); conditions: read-out: IC50 AChE, mean of two independent measurements, each in duplicate
[2] = molecular target: butyrylcholinesterase (BChE) from human serum (Homo sapiens, UniProt P06276); test: Inhibiting power on BChE (Ellman spectrophotometric method); type: biochemical; conditions: read-out: IC50 BChE, mean of two independent measurements, each in duplicate

`Nc1c2c(nc3cc(Cl)ccc13)CC(CNC(=O)CC1CCSS1)CC2` (centres unmarked) was tested, and the IC50 [1] was 0.215 µM and the IC50 [2] was 2.58 µM.
